In patent publication EP4813463A2, “TYK2 INHIBITORS AND COMPOSITIONS AND METHODS THEREOF” (Lynk Pharmaceuticals Co. Ltd., priority 2023, dated 2024):

How the values were obtained:
[1] = Brain pharmacokinetic studies in rats; assay type: in vivo, Sprague-Dawley rats; conditions: po, 5 mg/kg, solution
Method: Pharmacokinetic profiles of test articles were evaluated in fasted Sprague-Dawley rats. Different kinds of formulations were designed to ensure test articles fully dissolved and wouldn't precipitate in 1:10 SGF or FaSSIF dilution. Typically, Rats were dosed with 3 mg/kg and 5 mg/kg by intravenous injection and oral gavage, respectively. The animal was restrained manually at the designated time points, approximately 150 µL of blood sample was collected via jugular vein for serial bleeding into K2EDTA tubes. The blood samples were maintained in wet ice first and centrifuged to obtain plasma (2000g, 4°C, 5 min) within 30 minutes post sampling. Anesthetizing the rat with the Isoflurane vaporizer to 2%~3% and place its back on the operation table. Spread the animal limbs and pin the limbs on the operation table. Make a cut along the sternum about 4cm long, low enough to expose the sternum's end. Expose the heart and use a 25-gauge needle connected with a 20 mL syringe filled with 20 mL of cold saline to pierce the left ventricle. Maintain the placement of the needle, and slowly push the syringe plunger to wash the brain with saline. The perfusion will be finished within about 2 min and then take the brain out of the body carefully without damaging the tissue. Dry the tissue on filtrate paper, which should be placed on ice, and then weigh the brain tissue and store at -70 °C and analyzed by LC/MS/MS for quantification. PK parameter values, including, but not necessarily limited to, the maximum plasma concentrations (Cmax), and the area under the plasma concentration vs. time curve (AUC) from time zero to 24-hour (AUC0-24h) were determined using WinNonlin program. Table 13. Systemic Pharmacokinetic Parameters in Sprague-Dawley Rats

Caco-2 cell lines = test: Caco-2 cell permeability; assay type: in vitro ADME; conditions: Caco-2, 10.0 µM, no p-gp inhibitor
Method: Compounds permeability was evaluated using Caco-2 cell lines. HBSS buffer was used as transfer buffer. Appropriate dosing and receiver solutions were applied to the donor and receiver chambers to initiate the transport assay in apical to basolateral (A to B) or basolateral to apical (B to A) directions. Compounds were tested at 10.0 µM in the absence of p-gp inhibitor bidirectionally in duplicates. After incubation at 37°C for 90 mins, donor and receiver samples were analyzed by LC-MS/MS. The intestinal absorption potential was assessed using Papp value and efflux ratio.

BMS986165 [reference compound]
AUC ([1]; brain): 82.6 ng·h/g | T1/2 ([1]; brain): 7.85 h | Brain AUC/Systemic AUC [1]: 0.02 | AUC ([1]; systemic (plasma)): 4088 ng·h/mL | T1/2 ([1]; systemic (plasma)): 1.82 h | Efflux Ratio: Papp(B-A)/Papp(A-B) (Caco-2 cell lines): 56.50 | Papp (10^-6 cm·s^-1) A-B (Caco-2 cell lines; 90 mins, A to B): 0.98 10^-6 cm·s^-1 | Papp (10^-6 cm·s^-1) B-A (Caco-2 cell lines; 90 mins, B to A): 55.12 10^-6 cm·s^-1
